Experimental data taken from patent US20060040884A1, “Antisense oligonucleotides directed to genes regulated by trapoxin-induced HDAC inhibition” (priority 2001, published 2006).

Test system: RhoB promoter
Assay: RhoB promoter luciferase reporter assay in transfected H1299 cells treated with TPX
Conditions: 30 nM TPX vs 0.1% DMSO, 24 h

## O=C(CCCCC[C@@H]1NC(=O)[C@H]2CCCCN2C(=O)[C@H](Cc2ccccc2)NC(=O)[C@H](Cc2ccccc2)NC1=O)C1CO1 (stereo partly shown) [TPX, Trapoxin A] (cyclo(FF[dPip][Aoe(9ξ)]))
  Response of RhoB promoter with inverted CCAAT box mutated to 5′-TTTAG-3′: dramatically reduced to the promoterless vector control level

Square brackets hold non-standard residues; d marks the D form. Peptide text beside a SMILES is read from it. ξ: configuration not given here. Aoe(9ξ) = N[C@@H](CCCCCC(=O)C1CO1)C(=O)O; dPip = O=C(O)[C@H]1CCCCN1
